# In PubChem BioAssay AID1346378 (National Center for Advancing Translational Sciences (NCATS), 2018):
# Chains of the proteins cited; added tags and fusions are not shown. Lines headed by an entry give the natural chain unless they say otherwise; changes in a name come on top.
# UniProt Q9BTU6: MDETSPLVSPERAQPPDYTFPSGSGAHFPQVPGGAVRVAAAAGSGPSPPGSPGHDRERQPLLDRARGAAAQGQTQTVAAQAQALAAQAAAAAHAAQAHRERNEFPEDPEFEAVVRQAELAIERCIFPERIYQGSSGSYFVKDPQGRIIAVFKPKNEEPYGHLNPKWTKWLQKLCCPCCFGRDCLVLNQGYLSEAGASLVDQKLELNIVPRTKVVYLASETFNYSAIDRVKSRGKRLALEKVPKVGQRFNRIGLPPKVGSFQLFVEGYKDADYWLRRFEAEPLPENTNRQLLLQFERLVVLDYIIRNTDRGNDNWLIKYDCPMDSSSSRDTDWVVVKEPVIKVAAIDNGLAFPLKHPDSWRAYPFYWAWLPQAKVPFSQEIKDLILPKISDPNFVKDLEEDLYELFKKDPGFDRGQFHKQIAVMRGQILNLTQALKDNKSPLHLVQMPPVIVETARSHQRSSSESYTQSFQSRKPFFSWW
# “And” between values parts separate entries of the source, which are not always exact repeats. Identical values can stand only once. The list shows a part of the results, in another mix than the full data. The source made the active and inactive calls. Cut-off read from the data, not from the text of the source: active = activity change below about -50%; inconclusive = mostly about -30% to -49%; inactive = weaker than that.
# Biological target: Phosphatidylinositol 4-kinase type 2-alpha (Homo sapiens) (UniProt Q9BTU6)
# Assay: qHTS for small molecular inhibitors of PI4K2A
# Conditions: purified PI4K2A, ADP-Glo luminescence, 1 h; at 76.9 µM, stronger effect = lower value
# Source text: The phosphatidylinositol 4-phosphate (PI4P) is emerging as a key regulator of lipid transfer in ER-membrane contact sites. The four different phosphatidylinositol 4-kinase (PI4K) enzymes generate PI4P in different membrane compartments supporting distinct cellular processes many of which are crucial for the maintenance of cellular integrity but also hijacked by intracellular pathogens. The goal of this screening project is to search for small molecular inhibitors of PI4K2A based on a high throughput screening strategy.The ADP-Glo assay was used as a starting point to develop a miniaturized version for HTS applications. To implement the HTS screen, the PI4K ADP-Glotrade mark Kinase assay (Promega, V9102) was miniaturized for the 1536-well format used at NCGC.
# For the robotic screening, the ADP-Glo assay using the ADP-Glotrade mark Kinase Assay kit from Promega was miniaturized and optimized on 1536-well white solid bottom plates (Greiner Bio-one). The substrate, 1.2 mM PI, prepared in the assay buffer (40mM Tris pH7.5, 20mM MgCl2, 1mM EGTA, 0.4% Triton X-100, 0.5mM DTT, 0.5mg/ml BSA) and PI4K2A enzyme, diluted also in the assay buffer to 4ug/mL, were dispensed onto the plates in equal volumes (1microl/well), pinned with 23 nL/well tested compounds or control followed by dispensation of 1microl/well 300microM ATP. The plates were incubated for one hour. Then, 2 µL/well of ADP-Glo reagent was added and incubated for 40 minutes. Next, 4microL/well of Kinase Detection Buffer was added to the plates and incubated for additional 40 minutes. All incubation steps were performed at ambient temperature. The resulting luminescence signal was measured on Viewlux plate reader (PerkinElmer). Adenosine, a partial non-specific inhibitor, was used as a positive control at 100microM final concentration to assess the assay's quality and plate-to-plate reproducibility. We also used "no enzyme" control to gauge the assay's maximal potential inhibition (IC100).
row,Compound,"activity change, negative = inhibition"
1,CC(=O)Nc1ccc([As](=O)(O)O)cc1,inactive: -1.36%
2,CCCC1OP(N)(=O)OCC1CC (stereo not given),inactive: -3.18%
3,CN(C)P(=O)(N(C)C)n1c(Nc2ccccc2)nnc1-c1ccccc1,inactive: -0.617%
4,O=P(Nc1nc2ccc(Cl)cc2s1)(c1ccccc1)c1ccccc1,inactive: 0.363%
5,CCN(N=Nc1nonc1N)c1nonc1N,inactive: -3.35%
6,Nc1cccc2ccc([As](=O)(O)O)cc12,inactive: -25.3%
7,O=C(Nc1cc([As](=O)(O)O)ccc1O)c1ccccc1,inactive: -1.03%
8,O=P1(N(CCCl)CCCl)OCCCS1 (stereo not given),inactive: -4.49%
9,O=[N+]([O-])c1cccc(NC2=NCC(CBr)S2)c1 (stereo not given),inactive: 0.141%
10,COC(=O)C1(C)COP(=O)(Nc2ccccc2)OC1 (stereo not given),inactive: 0.0759%
11,O=C(O)CNc1ccc([As](=O)(O)O)cc1,inactive: 3.81%
12,CC(C)(C)C(=O)NC(Sc1ccncn1)C(Cl)(Cl)Cl (stereo not given),inactive: -1.06%
13,O=[N+]([O-])c1ncn(CCn2ncnc2[N+](=O)[O-])n1,inactive: -4.03%
14,CC(=O)N1C2C3N(C(C)=O)C1C1N(C(C)=O)C(C(N1C(C)=O)N3C(C)=O)N2C(C)=O,inactive: -0.892%
15,O=[N+]([O-])c1cccc2n[nH]nc12,inactive: 5.5%
16,Cc1ccc(NP(=O)(Oc2ccccc2)Oc2ccccc2)nc1,inactive: -0.456%
17,CCc1nc2c(n1)c1c(non1O)c1c2no[n+]1[O-],inactive: -20.9%
18,COc1ccc(C2=NCC(CBr)S2)cc1 (stereo not given),inactive: -2.31%
19,CC(C)=N/N=C(\N)N[N+](=O)[O-],inactive: -3.81%
20,CC(C)c1nc(Nc2ccccc2)n(P(=O)(N(C)C)N(C)C)n1,inactive: 3.99%
21,CN(C)C(=O)OCCc1n(C)cc[n+]1C,inactive: 1.08%
22,c1cc(-c2nn[nH]n2)ccc1-c1nn[nH]n1,inactive: 5.14%
23,CC1CCN(C(=O)Oc2c(Cl)cc(Cl)c3cccnc23)CC1,inactive: -0.119%

row,Compound,"activity change, negative = inhibition"
1,Nc1ccc([As](=O)(O)c2ccc(N)cc2)cc1,inactive: -2.72%
2,CCN(/C(=N/P(=O)(N1CCOCC1)N1CCOCC1)N1CCOCC1)c1ccc(OC)cc1,inactive: -0.442%
3,O=C(COc1ccccc1)OC1CN2CCC1CC2 (stereo not given),inactive: -13.4%
4,O=C(Nc1ccncc1[N+](=O)[O-])c1ccc([N+](=O)[O-])cc1[N+](=O)[O-],inactive: 3.57%
5,O=C(O)C(=O)c1ccc(N(CCCl)CCCl)cc1,inactive: -8.65%
6,COP1(=S)c2c(C)nn(CCC#N)c2N=C(c2ccc(F)cc2)N1C (stereo not given),inactive: 3.11%
7,COC(=O)C1(C)COP(=O)(N2CCCC2)OC1 (stereo not given),inactive: 0.54%
8,CCC(C)N(CC(C)C)C(=S)SC(NC(C)=O)C(Cl)(Cl)Cl (stereo not given),inactive: 4.54%
9,CCOC(=O)c1ccc(NC(=O)C(C)(CCl)SC)cc1 (stereo not given),inactive: -1.18%
10,O=C(OC1CN2CCC1CC2)c1cccc([N+](=O)[O-])c1 (stereo not given),inactive: -1.89%
11,CSc1ccc(Nc2c([N+](=O)[O-])cc([N+](=O)[O-])cc2[N+](=O)[O-])cc1,inactive: -4.7%
12,CCCCOc1ccc(C(=O)NCC2(N3CCCCC3)CCCCC2)cc1OC,inactive: -1.62%
13,Cc1cc(SC(NC(=O)c2ccccc2)C(Cl)(Cl)Cl)nc(C(C)C)n1 (stereo not given),inactive: 1%
14,COP(=O)(OC)N1CC1c1ccccc1 (stereo not given),inactive: 1.13%
15,CC1CCNP(=O)(N(CCCl)CCCl)O1 (stereo not given),inactive: -2.77%
16,O=C(O)C(O)c1ccc(N(CCCl)CCCl)cc1 (stereo not given),inactive: -8.65%
17,CCOC(=O)Nc1ccc([As](=O)(O)O)c(O)c1,inactive: -2.53%
18,O=[N+]([O-])c1ccc(Nc2ccc(Oc3ccc([N+](=O)[O-])cc3[N+](=O)[O-])cc2)c([N+](=O)[O-])c1,inactive: 2.49%
19,Cc1cc(SC(NC=O)C(Cl)(Cl)Cl)ncn1 (stereo not given),inactive: 6.29%
20,O=P(Nc1ccccn1)(c1cccc2ccccc12)c1cccc2ccccc12,inactive: 3.79%
21,CCOC(=O)Nc1cccc([As](=O)(O)O)c1,inactive: 2.98%
22,Cc1ccc2nc3c(c(C)c2c1)CC(C(Cl)Cl)S3 (stereo not given),inactive: -1.97%
23,Cc1ccc(OP(=O)(Nc2ccc([N+](=O)[O-])cn2)Oc2ccc(C)cc2)cc1,inactive: -0.242%

row,Compound,"activity change, negative = inhibition"
1,[N-]=[N+]=NC1CCCCC1NC(=O)c1cc([N+](=O)[O-])cc([N+](=O)[O-])c1 (stereo not given),inactive: -2.1%
2,O=[As](O)(c1ccc(O)cc1)c1ccccc1O,inactive: -2.03%
3,C[As](=O)(O)c1cccc(C(=O)O)c1,inactive: -2.75%
4,COc1cc(C(=O)NCC2(N3CCOCC3)CCCCC2)ccc1OCC(C)C,inactive: 4.66%
5,O=[N+]([O-])c1ccc(-c2cc([N+](=O)[O-])c(O)c([N+](=O)[O-])c2)cc1,inactive: -0.336%
6,CCN(CC)C(=S)SC(NC=O)C(Cl)(Cl)Cl (stereo not given),inactive: -2.06%
7,O=C(OC1CN2CCC1CC2)c1cccc2[nH]cnc12 (stereo not given),inactive: -3.47%
8,CC(C)NC(=O)NP(=O)(Oc1ccccc1)Oc1ccccc1,inactive: 0.548%
9,O=[N+]([O-])c1cc([N+](=O)[O-])c(-c2ccn[nH]2)s1,inactive: -8.05%
10,CC(C)c1ccc(OP(=O)(Nc2ccccn2)Oc2ccccc2F)cc1 (stereo not given),inactive: -2.46%
11,COC(=O)C1(C)COP(=O)(N2CCCCCC2)OC1 (stereo not given),inactive: 3.42%
12,ClCCSc1nnc(-c2cccnc2)o1,inactive: 2.16%
13,COc1ccc2nc(NP(=O)(c3ccccc3)c3ccccc3)sc2c1,inactive: 1.14%
14,COc1cc(I)ccc1[As](=O)(O)O,inactive: 3.34%
15,O=P1(N(CCCl)CCCl)Nc2ccccc2N1,inactive: -8.19%
16,O=P1(N(CCCl)CCCl)OCCCN1CCCl (stereo not given),inactive: 2.42%
17,O=C(OC1CN2CCC1CC2)C12CC3CC(CC(C3)C1)C2 (stereo not given),inactive: -7.04%
18,Cc1cc(=O)[nH]c(N[N+](=O)[O-])n1,inactive: 2.48%
19,Cc1c2c(nc3ccccc13)SC(C(Cl)Cl)C2 (stereo not given),inactive: -1.28%
20,COc1ccc(N/C(=N/P(=O)(N2CCOCC2)N2CCOCC2)N2CCOCC2)cc1,inactive: -7.71%
21,O=[N+]([O-])c1cc(Oc2ccc([N+](=O)[O-])cc2C(F)(F)F)cc([N+](=O)[O-])c1,inactive: -0.0805%
22,O=[As](O)(c1cccc(O)c1)c1cccc(O)c1,inactive: -0.713%
23,Cc1cccc(OCC(=O)OC2CN3CCC2CC3)c1 (stereo not given),inactive: 1.93%

row,Compound,"activity change, negative = inhibition"
1,COc1cc(C(=O)NCC2(N3CCOCC3)CCCCC2)cc(Cl)c1OC(C)C,inactive: 0.354%
2,O=[As](O)(O)c1cccnc1,inactive: 9.73%
3,CS(=O)(=O)c1ccc(Cl)c(NC(=O)COC(=O)C(O)(c2ccccc2)c2ccccc2)c1,inactive: -0.555%
4,O=C(OC1CN2CCC1CC2)c1ccc(Cl)cc1 (stereo not given),inactive: -9.98%
5,CN(C(=O)Cc1ccc(Cl)c(Cl)c1)[C@@H]1CC[C@]2(CCCO2)C[C@H]1N1CCCC1,inactive: 0.493%
6,COc1cc(C2NCCC3(OCCO3)C2(C)C)cc(OC)c1OC (stereo not given),inactive: -4.03%
7,CCOP(=O)(Nc1cccc2ccccc12)OCC,inactive: -4.03%
8,CCCOP(=S)(Nc1nc(N)cc(=O)[nH]1)OCCC,inactive: -1.6%
9,Cc1ccc(NCCc2c([N+](=O)[O-])cc([N+](=O)[O-])cc2[N+](=O)[O-])cc1,inactive: -22.2%
10,Nc1cccc2c([As](=O)(O)O)cccc12,inactive: -3.3%
11,O=C(O)COc1ccc([As](=O)(O)O)cc1[N+](=O)[O-],inactive: 0.554%
12,Nc1ccccc1[As](=O)(O)c1ccccc1,inactive: -4.64%
13,CCOP1(=S)c2c(C)nn(CCC#N)c2N=C(c2ccccc2F)N1C (stereo not given),inactive: -1.83%
14,O=P(Nc1nccs1)(c1ccccc1)c1nc2ccccc2s1 (stereo not given),inactive: -26.8%
15,O=P(Nc1nccs1)(Oc1ccccc1)Oc1ccccc1,inactive: 1.21%
16,O=[N+]([O-])c1ccc2c(c1)nnn2O,inactive: -2.93%
17,CN(C(=O)Cc1ccc(Cl)c(Cl)c1)[C@H]1CC[C@@]2(CCCO2)C[C@@H]1N1CCCC1,inactive: 3.07% and inactive: -1.8%
18,N#CCCN(C(=O)COC(=O)C(O)(c1ccccc1)c1ccccc1)c1ccc(F)cc1,inactive: -3.19%
19,CCOP1(=S)c2c(C)nn(CCC#N)c2N=C(c2ccc(F)cc2)N1C (stereo not given),inactive: 1.37%
20,CN(C(=O)Cc1ccccc1)[C@@H]1CC[C@]2(CCCO2)C[C@H]1N1CCCC1,inactive: -1.54% and inactive: 2.99%
21,NC(=O)Nc1ccc([As](=O)(O)O)cc1,inactive: 4.18% and inactive: -1.59%
22,O=C(/C=C/c1ccccc1)OC1CN2CCC1CC2 (stereo not given),inactive: 0.732%
23,CCCC1OP(=O)(Nc2ccccc2)OCC1CC (stereo not given),inactive: 2.62%

row,Compound,"activity change, negative = inhibition"
1,CN(C)C1(CNC(=O)c2ccc(S(C)(=O)=O)cc2)CCCCC1,inactive: -3.37%
2,Cc1nn(-c2ccccc2)c2c1P(=O)(N1CCOCC1)N(C)C(c1ccccc1)=N2 (stereo not given),inactive: 2.09%
3,Cc1ccc(C(=O)OC2CN3CCC2CC3)cc1 (stereo not given),inactive: 3.56%
4,CC1CCC(C(C)C)C(OP(=O)(Nc2ccccn2)c2ccccc2)C1 (stereo not given),inactive: -14%
5,NS(=O)(=O)c1cccc(NC(=O)COC(=O)C(O)(c2ccccc2)c2ccccc2)c1,inactive: -1.46%
6,O=P1(Nc2ccc(Br)cn2)COc2ccccc2OC1,inactive: 0.953%
7,Cc1ccc(OCC(=O)OC2CN3CCC2CC3)cc1 (stereo not given),inactive: 1.4%
8,O=[As](O)(c1cccs1)c1cccs1,inactive: -3.26%
9,Nc1cccc([As](=O)(O)c2ccccc2)c1,inactive: 2.29%
10,O=P1(Nc2ncccn2)COc2ccccc2OC1,inactive: -2.63%
11,Cc1ccc(S(=O)(=O)N(CCCN)CCCc2c(C)nc(N)[nH]c2=O)cc1,inactive: -7.07%
12,Clc1n[nH]nc1-c1nn[nH][15n]1,inactive: -4.6%
13,O=P1(N(CCCl)CCCl)NCCC(C(F)(F)F)O1 (stereo not given),inactive: -1.41%
14,CC(C)(C)C(=O)NC(Sc1ncccn1)C(Cl)(Cl)Cl (stereo not given),inactive: -2.89%
15,CN(CCCl)Cc1cc(Cl)c(NC2=NCCN2)c(Cl)c1,inactive: 4.06% and inactive: -7.22%
16,CCOP(=O)(Nc1ccc(C)cn1)OCC,inactive: -2.23%
17,CCC1=CC2Cc3nc4ccc(Cl)cc4c(N)c3C(C1)C2 (stereo not given),inactive: 3.11%
18,O=P1(Nc2ccccn2)COc2ccccc2OC1,inactive: 7.13%
19,CCOP(=O)(NC(=NC(C)c1ccccc1)NC(C)c1ccccc1)OCC (stereo not given),inactive: 5.73%
20,CC1(CBr)Cn2c(nc3ccccc3c2=O)S1 (stereo not given),inactive: -8.99%
21,CN(C(=O)Cc1ccc(Cl)c(Cl)c1)[C@@H]1CCCC[C@H]1N1CCCC1,inactive: 0.562%
22,CC(C)/C=N\N=C(\N)N[N+](=O)[O-],inactive: 2.59%
23,COc1ccccc1CNC(=O)COC(=O)C(O)(c1ccccc1)c1ccccc1,inactive: -4.4%
